Laboratory results: ChEMBL document CHEMBL1128641, “N-3-substituted pyrimidinones as potent, orally active, AT1 selective angiotensin II receptor antagonists” (J Med Chem, 1995)

Chains of the proteins cited; added tags and fusions are not shown. Lines headed by an entry give the natural chain unless they say otherwise; changes in a name come on top.
UniProt P29089: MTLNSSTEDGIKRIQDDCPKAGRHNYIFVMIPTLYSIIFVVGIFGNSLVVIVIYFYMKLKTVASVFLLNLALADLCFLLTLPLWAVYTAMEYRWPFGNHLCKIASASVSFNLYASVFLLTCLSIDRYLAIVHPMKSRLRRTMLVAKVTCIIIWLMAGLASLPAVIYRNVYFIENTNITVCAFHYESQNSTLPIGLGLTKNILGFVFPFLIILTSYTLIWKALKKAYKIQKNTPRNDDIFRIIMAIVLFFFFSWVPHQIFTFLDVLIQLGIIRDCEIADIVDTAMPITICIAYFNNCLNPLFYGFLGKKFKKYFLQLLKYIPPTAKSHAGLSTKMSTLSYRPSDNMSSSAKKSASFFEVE
UniProt P25095: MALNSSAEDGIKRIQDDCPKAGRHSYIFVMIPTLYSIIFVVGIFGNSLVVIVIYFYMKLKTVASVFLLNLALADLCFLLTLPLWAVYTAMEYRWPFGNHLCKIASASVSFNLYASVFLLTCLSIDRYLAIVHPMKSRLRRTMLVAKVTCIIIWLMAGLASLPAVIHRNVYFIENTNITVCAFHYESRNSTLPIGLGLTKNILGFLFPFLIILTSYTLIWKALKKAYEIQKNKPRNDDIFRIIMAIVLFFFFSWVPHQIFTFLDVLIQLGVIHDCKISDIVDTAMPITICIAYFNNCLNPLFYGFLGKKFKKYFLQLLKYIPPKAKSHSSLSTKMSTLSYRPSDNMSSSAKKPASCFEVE

Biological target: Angiotensin II receptor (AT-1) type-1 (Rattus norvegicus, UniProt P29089+P25095)
Experiment: Displacement of [3H]angiotensin II from Angiotensin II type 1 receptor in rat adrenal cortical membrane
Assay type: cell membranes

Ki: 5.137 µM
SMILES: CCCCc1ncn(Cc2ccc(C(=O)O)cc2)c(=O)c1Cc1ccc(-c2ccccc2C(=O)O)cc1
